Experiments:
BRD2 BD1 = BRD2 BD1 (Homo sapiens, UniProt P25440); conditions: ITC, 30 °C
Description: (§1) Figure 1 Design, synthesis, and biophysical and biological evaluation of BET bromodomain PROTACs.
(§2) To assess whether PROTAC molecules retained their binding to the target proteins VHL and BET bromodomains in a similar fashion as the parental ligands, isothermal titration calorimetry (ITC) experiments were performed (Figure 1; all ITC titrations are shown in the Supporting Information).
(§3) 50 μg/mL of kanamycin. Cell growth was allowed at 37 °C and 200 rpm to an optical density of about 2.5 (OD600), at which point temperature was decreased to 18°C. Once the cultures equilibrated at 18 °C, protein expression was induced overnight at 18 °C with 0.4 mM isopropyl-β-thiogalactopyranoside (IPTG). The bacteria was harvested the next day by centrifugation (8000 rpm for 10 minutes at 6 °C, JLA 8.1000 rotor on a Beckman Coulter Avanti J-20 XP centrifuge) and frozen at -20 °C as pellets for storage. Pellets of cells expressing His6-tagged proteins were resuspended in lysis buffer (50 mM HEPES pH 7.5 at 25 °C, 150 mM NaCl, 40 mM Imidazole and 2 mM β-mercaptoethanol). One tablet of Complete Protease Inhibitor Cocktail (Roche) was added to the resuspension and cells were lysed using a French Press at 4 °C.
(§4) Following a 20 min incubation period at room temperature with 10 μg/mL DNaseI and 10 mM MgCl2, the cell debris was removed by centrifugation, 20,000 x g at 4 °C. The lysate was purified via immobilized metal ion affinity chromatography on a His Trap HP 5mL Ni sepharose column (GE Healthcare Life Sciences) on an ÄKTApure system (GE Healthcare). His6-tagged protein was eluted using a linear gradient to 250 mM imidazole in the same buffer. After Ni purification, the pooled elution fractions were concentrated to a volume of 4 mL and further purified by size exclusion chromatography on a Superdex 75 16/60 Hiload gel filtration column (GE Healthcare) on an ÄKTApure system using the following buffer: 20 mM HEPES pH 7.5, 150 mM NaCl.
(§5) Samples were monitored by SDS-polyacrylamide gel electrophoresis to verify purity. Pure protein was then flash frozen with liquid nitrogen and stored at -80 °C. The mass and purity of the proteins were subsequently verified by mass spectrometry.
(§6) Isothermal Titration Calorimetry (ITC):
(§7) ITC experiments were carried out at an ITC 200 instrument from MicroCalTM with a […]
(§8) Experiments were conducted as PROTAC compound into protein titrations, except in the case of MZ3 where protein was titrated into PROTAC. BET protein experiments were conducted in a buffer containing 20 mM HEPES with 100 mM NaCl at pH 7.5 and a temperature of 30 °C. VBC protein experiments were carried out in a buffer containing 20 mM Bis-Tris, 150 mM NaCl and 2 mM Dithiothreitol (DTT) at pH 7 and a temperature of 25 °C.

BRD2 BD2 = BRD2 BD2 (Homo sapiens, UniProt P25440); conditions: ITC, 30 °C
Description: as §1, §2, §3, §4, §5, §6, §7, §8

BRD3 BD1 = BRD3 BD1 (Homo sapiens, UniProt Q15059); conditions: ITC, 30 °C
Description: as §1, §2, §3, §4, §5, §6, §7, §8

BRD3 BD2 = BRD3 BD2 (Homo sapiens, UniProt Q15059); conditions: ITC, 30 °C
Description: as §1, §2, §3, §4, §5, §6, §7, §8

BRD4 BD1 = BRD4 BD1 (Homo sapiens, UniProt O60885); conditions: ITC, 30 °C
Description: as §1, §2, §3, §4, §5, §6, §7, §8

BRD4 BD2 = BRD4 BD2 (Homo sapiens, UniProt O60885); conditions: ITC, 30 °C
Description: as §1, §2, §3, §4, §5, §6, §7, §8

BRD4 = BRD4 (Homo sapiens, UniProt O60885); conditions: HeLa cells
Description: 100U/ml of penicillin/streptomycin. […]
harvested after 48 hours for gene expression study.
Single time point treatment […]
concentrated compound solution in media. The final DMSO concentration was 0.01 % v/v. […]
concentrated compound solution in media. Treatment was conducted at given time points prior […]
Protein recovery experiment […]
treatment. Cells were harvested at given time points. […]
washed twice with ice cold PBS.
After removal of the insoluble
PierceTM BCA Protein Assay Kit. […]
ab109027, EPR6089) 1:50000.
Between incubation with the different antibodies
RNA extraction and real-time PCR
After treatment described

Cc1ncsc1-c1ccc(CNC(=O)[C@@H]2C[C@@H](O)CN2C(=O)[C@@H](NC(=O)COCCOCCOCCNC(=O)C[C@@H]2N=C(c3ccc(Cl)cc3)c3c(sc(C)c3C)-n3c(C)nnc32)C(C)(C)C)cc1 [MZ1]
ΔS (BRD2 BD1): -4.29 ± 0.38 cal/mol∙K
ΔH (BRD2 BD1; protein 15 μM, ligand 150 μM): -10.0 ± 0.1 kcal/mol
ΔG (BRD2 BD2): -9.22 ± 0.05 kcal/mol
ΔS (BRD2 BD2): 10.3 ± 0.2 cal/mol∙K
ΔH (BRD2 BD2; protein 15 μM, ligand 150 μM): -6.08 ± 0.04 kcal/mol
ΔG (BRD3 BD1): -9.62 ± 0.02 kcal/mol
ΔS (BRD3 BD1): -4.40 ± 0.20 cal/mol∙K
ΔH (BRD3 BD1; protein 15 μM, ligand 150 μM): -10.0 ± 0.06 kcal/mol
ΔG (BRD3 BD2): -9.63 ± 0.06 kcal/mol
ΔH (BRD3 BD2; protein 15 μM, ligand 150 μM): -8.32 ± 0.05 kcal/mol
ΔG (BRD4 BD1): -8.91 ± 0.02 kcal/mol
ΔS (BRD4 BD1): 1.04 ± 0.13 cal/mol∙K
ΔH (BRD4 BD1; protein 15 μM, ligand 150 μM): -8.59 ± 0.03 kcal/mol
ΔG (BRD4 BD2): -9.61 ± 0.04 kcal/mol
ΔS (BRD4 BD2): 9.04 ± 0.16 cal/mol∙K
ΔH (BRD4 BD2; protein 15 μM, ligand 150 μM): -6.86 ± 0.03 kcal/mol
time to detectable recovery of intracellular BRD4 after washout (BRD4; 1 μM for 4 h, then compound removed from media, monitored 48 h): 20 h
BRD4 protein level without wash step (BRD4; 1 μM single treatment, no exchange of media, after 48 h): no protein could be detected

From PMC4548256, “Selective Small Molecule Induced Degradation of the BET Bromodomain Protein BRD4” (ACS Chemical Biology, 2015)
